The series concerns the target DNMT3A1 UDR WT (human) (UniProt Q9Y6K1). Kind of series: BLI. Conditions: none; WT Xenopus histones; BLI: 20 mM Tris-HCl pH 7.5, 50 mM NaCl, 1 mM DTT, 0.01% Tween-20, 30 C; EMSA: pH 7.5, 50 mM NaCl, 5% glycerol, 0.05% b-ME, 4 C.

In the case of unmodified NCP, biotinylated 601, the equilibrium dissociation constant (Kd) is 197 nM.

Usually Kd stands for the concentration at which binding is half-saturated.

For the origin of these results see article PMC11266573.
